{
  "source": "paper PMC12569658",
  "about": "“An Orally Administered Misuse Deterrent Opioid Prodrug for Treatment of Acute Pain” (JACS Au, 2025)",
  "system": "C57BL/6J mice",
  "test": "Hot plate latency after PO gavage",
  "conditions": "30 mg/kg of oxycodone in prodrug, 55 °C hot plate, oxycodone control 3 mg/kg PO, n = 6",
  "data": [
    {"substance": "Ac-Lys[Tyr-Ala-Ala-Ala]-(2-(oxycodone-thionocarbamate)methyl)ethylamino ditrifluoroacetate [compound 20]", "values": [
      {"measurement": "thermal threshold (hot plate) latency after PO gavage", "result": "increased to a level similar to that of the oxycodone positive control"}
    ]}
  ]
}
